{"source": "patent US20230248844A1", "about": "“C[…] ADC OR AN AOC COMPRISING A VHH, AND A SAPONIN OR A LIGAND-SAPONIN CONJUGATE” (SAPREME TECHNOLOGIES B.V., priority 2020, published 2023)", "key": {"MDA-MB-468 cells": {"test_system": "MDA-MB-468 cells", "assay": "Cell killing / cell viability (MTS) assay on MDA-MB-468", "assay_type": "cell-based, human"}, "SK-BR-3 cells": {"test_system": "SK-BR-3 cells", "assay": "Cell killing / cell viability (MTS) assay on SK-BR-3", "assay_type": "cell-based, human"}, "A431 cells": {"test_system": "A431 cells", "assay": "Cell killing / cell viability (MTS) assay on A431", "assay_type": "cell-based, human"}, "[1]": {"test_system": "human A431 tumor cells xenograft", "assay": "A431 xenograft tumor model, tumor volume and survival (Example 10)", "assay_type": "in vivo, Balb/c nude mice", "conditions": "sub-optimal ADC dose"}, "[2]": {"conditions": "monkeys; cited from earlier work"}, "A2058 cells": {"test_system": "A2058 cells", "assay": "Cell killing / cell viability (MTS) assay on A2058", "assay_type": "cell-based, human"}, "HeLa cells": {"test_system": "HeLa cells", "assay": "Cell killing / cell viability (MTS) assay on HeLa", "assay_type": "cell-based, human", "conditions": "mAb-SO1861 conjugate titrated + fixed 50 pM trastuzumab-saporin (Example 14)"}, "[3]": {"conditions": "mAb-SO1861 (DAR4) titrated + fixed 50 pM bivalentVHH-EGFR-dianthin"}, "[4]": {"conditions": "mAb or mAb-SO1861 conjugate titrated + fixed 50 pM trastuzumab-saporin (Example 14)"}, "[5]": {"conditions": "SO1861 or mAb-SO1861 titrated (calculated on SO1861 concentration) + fixed 10 pM EGF-dianthin"}, "[6]": {"conditions": "SO1861 or mAb-SO1861 titrated (calculated on SO1861 concentration) + fixed 10 pM cetuximab-saporin"}, "[7]": {"conditions": "SO1861 or mAb-SO1861 titrated (calculated on SO1861 concentration) + fixed 50 pM trastuzumab-saporin"}}, "data": [{"substance": "Cetuximab-SO1861 (DAR4): SO1861-EMCH conjugated via cysteine residues to cetuximab, DAR 4", "values": [{"measurement": "IC50", "setting": "MDA-MB-468 cells; [3]", "result": 0.5, "unit": "nM"}, {"measurement": "IC50", "setting": "SK-BR-3 cells; [3]", "result": 200, "unit": "nM"}, {"measurement": "IC50", "setting": "A431 cells; [3]", "result": 4, "unit": "nM"}]}, {"substance": "Cetuximab: monoclonal antibody recognizing and binding human EGFR [reference compound]", "values": [{"measurement": "outcome (death/euthanasia or survival)", "setting": "[1]", "result": "(death/euthanasia)"}, {"measurement": "IC50 cell killing", "setting": "A431 cells; [4]", "result": "could not induce any cell killing activity"}, {"measurement": "IC50 cell killing", "setting": "A431 cells; titrated alone", "result": "could not induce any cell killing activity"}]}, {"substance": "T-DM1: Trastuzumab-emtansine carrying ~3.5 DM1 toxin molecules per antibody [reference compound]", "values": [{"measurement": "IC50", "setting": "MDA-MB-468 cells; titrated alone", "result": 60, "unit": "nM"}, {"measurement": "IC50 cell killing", "setting": "A431 cells; titrated alone", "result": "nanomolar concentrations"}, {"measurement": "enhancement of tolerable dose of DM1 by conjugation to trastuzumab", "setting": "[2]", "result": "at least two-fold"}]}, {"substance": "Trastuzumab: monoclonal antibody recognizing and binding human HER2 [reference compound]", "values": [{"measurement": "IC50 cell killing", "setting": "SK-BR-3 cells; mAb or mAb-SO1861 conjugate titrated + fixed 1.5 pM EGFdianthin (Example 14)", "result": "could not induce any cell killing activity"}, {"measurement": "IC50 cell killing", "setting": "SK-BR-3 cells; mAb or mAb-SO1861 conjugate titrated + fixed 5 pM cetuximab-saporin (Example 14)", "result": "could not induce any cell killing activity"}, {"measurement": "IC50 cell killing", "setting": "SK-BR-3 cells; titrated alone", "result": "could not induce any cell killing activity"}]}, {"substance": "cetuximab-SO1861: SO1861-EMCH conjugated via cysteine residues to cetuximab, DAR 3.7", "values": [{"measurement": "IC50", "setting": "MDA-MB-468 cells; [5]", "result": 6, "unit": "nM"}, {"measurement": "IC50", "setting": "MDA-MB-468 cells; [6]", "result": 3, "unit": "nM"}, {"measurement": "IC50", "setting": "MDA-MB-468 cells; [7]", "result": 18, "unit": "nM"}, {"measurement": "outcome (death/euthanasia or survival)", "setting": "[1]", "result": "death/euthanasia"}, {"measurement": "tumor size (volume)", "setting": "[1]; tumor approximately 170-180 mm^3 at start of treatment", "result": 2000, "unit": "mm^3"}, {"measurement": "IC50", "setting": "A431 cells; [5]", "result": 8, "unit": "nM"}, {"measurement": "IC50", "setting": "A431 cells; [6]", "result": 5, "unit": "nM"}, {"measurement": "IC50", "setting": "A431 cells; [7]", "result": 12, "unit": "nM"}, {"measurement": "IC50", "setting": "A431 cells; [4]", "result": 3, "unit": "nM"}, {"measurement": "IC50 cell killing", "setting": "A431 cells; titrated alone", "result": "could not induce any cell killing activity"}, {"measurement": "IC50", "setting": "A2058 cells; mAb-SO1861 conjugate titrated + fixed 50 pM trastuzumab-saporin (Example 14)", "result": "> 400", "unit": "nM"}, {"measurement": "IC50", "setting": "HeLa cells", "result": 400, "unit": "nM"}]}, {"substance": "trastuzumab-SO1861: SO1861-EMCH conjugated via cysteine residues to trastuzumab, DAR 4", "values": [{"measurement": "IC50", "setting": "MDA-MB-468 cells; [3]", "result": 400, "unit": "nM"}, {"measurement": "IC50", "setting": "MDA-MB-468 cells; mAb-SO1861 conjugate titrated + fixed 1.5 pM EGFdianthin (Example 14)", "result": "> 1000", "unit": "nM"}, {"measurement": "IC50 cell killing", "setting": "SK-BR-3 cells; titrated alone", "result": "could not induce any cell killing activity"}, {"measurement": "IC50", "setting": "A431 cells; [3]", "result": 400, "unit": "nM"}, {"measurement": "IC50", "setting": "A2058 cells; [3]", "result": 400, "unit": "nM"}]}]}
